How the values were obtained:
Homo sapiens [1] = organism: Homo sapiens; experiment: Selectivity ratio of Ki for His-tagged A1-BFL-1 (1 to 151) (unknown origin) to Ki for His-tagged MCL1 (171 to 327) (unknown origin)
Homo sapiens [2] = organism: Homo sapiens; experiment: Selectivity ratio of Ki for His-tagged BCLW (1 to 155) (unknown origin) to Ki for His-tagged MCL1 (171 to 327) (unknown origin)
Homo sapiens [3] = organism: Homo sapiens; experiment: Selectivity ratio of Ki for His-tagged BCLX-L (1 to 209) (unknown origin) to Ki for His-tagged MCL1 (171 to 327) (unknown origin)

O=C(O)CSc1cc(NS(=O)(=O)c2ccc(Oc3ccccc3)cc2)c2ccccc2c1O gave a Ratio Ki (Homo sapiens [1]) of 19, a Ratio Ki (Homo sapiens [2]) of 9 and a Ratio Ki (Homo sapiens [3]) of 59.
